Reference: ChEMBL document CHEMBL1124715 (J Med Chem, 1990)

Sequences of proteins named here, by UniProt entry; tags and fusion partners are left off. A change or cut given only in a name is not applied to a line headed by its entry.
UniProt P30994: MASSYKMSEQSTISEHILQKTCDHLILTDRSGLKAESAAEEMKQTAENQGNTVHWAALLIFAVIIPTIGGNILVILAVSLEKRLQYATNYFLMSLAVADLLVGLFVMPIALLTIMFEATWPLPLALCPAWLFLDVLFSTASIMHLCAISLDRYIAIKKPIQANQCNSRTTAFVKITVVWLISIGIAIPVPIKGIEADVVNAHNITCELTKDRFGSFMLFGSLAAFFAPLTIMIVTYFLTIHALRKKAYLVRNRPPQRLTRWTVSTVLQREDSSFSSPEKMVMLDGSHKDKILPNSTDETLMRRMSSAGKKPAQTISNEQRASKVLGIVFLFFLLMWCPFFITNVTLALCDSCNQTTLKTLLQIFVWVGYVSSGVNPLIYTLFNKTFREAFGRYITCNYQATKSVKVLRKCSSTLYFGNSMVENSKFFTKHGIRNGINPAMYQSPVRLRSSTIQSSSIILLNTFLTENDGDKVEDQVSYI
UniProt P08909: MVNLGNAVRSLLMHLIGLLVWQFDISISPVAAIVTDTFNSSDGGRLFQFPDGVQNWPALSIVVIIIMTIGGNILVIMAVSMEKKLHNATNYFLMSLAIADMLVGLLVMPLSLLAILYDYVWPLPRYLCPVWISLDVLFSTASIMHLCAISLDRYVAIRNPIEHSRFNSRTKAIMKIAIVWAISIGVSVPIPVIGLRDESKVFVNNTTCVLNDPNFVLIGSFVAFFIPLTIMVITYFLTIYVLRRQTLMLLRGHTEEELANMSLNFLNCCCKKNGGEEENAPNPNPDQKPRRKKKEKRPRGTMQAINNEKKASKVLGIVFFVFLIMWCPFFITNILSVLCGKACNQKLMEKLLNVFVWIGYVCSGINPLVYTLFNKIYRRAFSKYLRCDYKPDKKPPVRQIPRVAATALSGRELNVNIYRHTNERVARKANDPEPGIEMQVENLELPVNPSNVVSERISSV
UniProt P14842: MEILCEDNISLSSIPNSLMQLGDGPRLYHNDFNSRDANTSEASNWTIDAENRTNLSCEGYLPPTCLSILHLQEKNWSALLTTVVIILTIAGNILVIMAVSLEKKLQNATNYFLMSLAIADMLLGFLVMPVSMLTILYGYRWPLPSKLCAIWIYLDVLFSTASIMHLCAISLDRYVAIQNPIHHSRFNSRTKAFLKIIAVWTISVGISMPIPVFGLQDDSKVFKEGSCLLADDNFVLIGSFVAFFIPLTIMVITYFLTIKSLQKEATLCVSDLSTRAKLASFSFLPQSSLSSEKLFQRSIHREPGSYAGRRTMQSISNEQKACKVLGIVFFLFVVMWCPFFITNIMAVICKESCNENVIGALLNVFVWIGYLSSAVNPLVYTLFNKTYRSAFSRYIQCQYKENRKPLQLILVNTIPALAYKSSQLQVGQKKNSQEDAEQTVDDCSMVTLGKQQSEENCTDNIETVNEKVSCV

Target: Serotonin 2 (5-HT2) receptor (Rattus norvegicus, UniProt P30994+P08909+P14842)
Test: Binding affinity against 5-hydroxytryptamine 2 receptor of rat frontal cortex using [3H]ketanserin radioligand
Type: tissue-based

COc1cc(OC)c(OC)cc1CC(C)N (stereo unspecified)
Ki: 1250 nM
